Data taken from ChEMBL document CHEMBL3045925, “Isolation of terrestribisamide from Peltophorum pterocarpum (DC.) Baker ex. K. Heyne and its antimicrobial, antioxidant, and cytotoxic activities” (Med Chem Res, 2013).

How the values were obtained:
[1] = Antioxidant activity assessed as reduction of Fe3+ to Fe2+ after 4 min by spectrophotometric analysis relative to butylated hydroxytoluene; format: functional
[2] = tested on: COLO 320; assay: Cytotoxicity against Homo sapiens (human) COLO320 cells by MTT assay; format: functional, cell-based

COc1cc(/C=C/C(=O)NCCCCNC(=O)/C=C/c2ccc(O)c(OC)c2)ccc1O [TERRESTRIBISAMIDE]
fold change (FC) [1]: 3 | Activity [2]: Dose-dependent effect
